Assay results taken from patent US20050186292A1, “Antimicrobial agent” (Japan Bio Science Laboratory Co., Ltd., priority 2004, published 2005).

System: Helicobacter pylori NCTC11637
Test: Disk diffusion: diameter of inhibition circle on Brain Heart Infusion blood agar
Type: cell-based
Conditions: 30 μg per disk, 72 hours
Procedure: The antimicrobial activity against Helicobacter pylori was examined using the obtained Angelica keiskei sap and the Angelica keiskei sap preparation. Angelica keiskei sap (a), (b) a five-fold dilution of Angelica keiskei sap (a) (dilution with sterilized water), (c) a suspension in which the Angelica keiskei sap preparation was suspended in a concentration of 200 mg/ml in a sterilized water, and (d) a five-fold dilution of the suspension (c) (the concentration of the Angelica keiskei sap preparation: 40 mg/ml) were prepared, and 50 μl of each of them was spotted in a sterilized disk having a diameter of 6.35 mm, and dried at 37° C. to obtain sample disks. Each sample disk was placed onto a Brain Heart Infusion blood agar medium containing 5% horse defibrinated blood to which Helicobacter pylori NCTC11637 was inoculated, and was cultured under microaerophilic conditions at 37° C. for 72 hours, and then the diameter of an inhibition circle appeared in the agar medium was measured. Two disks per sample were used. As a positive control (e), a sterilized disk containing cephalothin (30 μg) was used, and as a negative control (f), those containing nalidixic acid (30 μg) was used (both manufactured by EIKEN CHEMICAL CO., LTD.).
The composition of the Brain Heart Infusion blood agar medium (OXOID Ltd.) was obtained by adding horse defibrinated blood to the medium shown in Table 2 below so that the final concentration was 5 w/v %.
The Brain Heart Infusion blood agar medium was prepared by first sterilizing the agar medium shown in Table 2, cooling to about 50° C., and then adding horse defibrinated blood so that the final concentration was 5 w/v %.

Compound | Diameter of Inhibition circle (disk 1) | Diameter of Inhibition circle (disk 2)
CCn1cc(C(=O)O)c(=O)c2ccc(C)nc21 [Nalidixic acid, nalidixic acid] | 0 mm | 0 mm
CC(=O)OCC1=C(C(=O)O)N2C(=O)[C@@H](NC(=O)Cc3cccs3)[C@H]2SC1 [Cephalothin, cephalothin] | 44 mm | 46 mm
